Values of other authors as cited in article PMC3764403, “Structure-Based Dissection of the Natural Product Cyclopentapeptide Chitinase Inhibitor Argifin” (Chemistry & Biology, 2008).

Target: T1, human chitotriosidase (hCHT) (Homo sapiens, UniProt Q13231)
T1 sequence (Q13231 22-466): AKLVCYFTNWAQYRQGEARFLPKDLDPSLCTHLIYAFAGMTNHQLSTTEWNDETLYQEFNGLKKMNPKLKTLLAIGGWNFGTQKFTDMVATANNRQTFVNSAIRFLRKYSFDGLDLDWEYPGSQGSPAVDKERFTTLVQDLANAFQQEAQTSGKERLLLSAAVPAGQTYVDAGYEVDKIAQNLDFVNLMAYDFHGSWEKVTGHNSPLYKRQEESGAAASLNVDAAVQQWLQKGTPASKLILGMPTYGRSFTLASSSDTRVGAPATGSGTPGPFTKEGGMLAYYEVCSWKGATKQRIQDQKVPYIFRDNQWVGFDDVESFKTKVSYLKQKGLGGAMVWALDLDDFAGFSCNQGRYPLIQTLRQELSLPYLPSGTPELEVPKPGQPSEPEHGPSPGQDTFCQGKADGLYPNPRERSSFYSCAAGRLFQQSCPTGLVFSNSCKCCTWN
Settings: Table 1, argifin value reported previously, ref Rao et al., 2005b, Dixon et al.; cited from earlier work

Substance: argifin (RFDDA)
- IC50: 4.5 µM
